ChEMBL document CHEMBL6182870, “Synthesis and biological activity of 1H-pyrrolo[3,2-g]isoquinolines as Haspin kinase inhibitors” (Bioorg Med Chem, 2025)

How the values were obtained:
Homo sapiens = organism: Homo sapiens; assay: Selectivity index, ratio of IC50 for inhibition of recombinant human PIM-1 extracted from bacteria using histone H1 as substrate to IC50 for inhibition of human haspin kinase domain (470 to 798 residues) extracted from bacteria using histone H3 (1 to 21) peptide as substrate
[1] = Selectivity index, ratio of IC50 for inhibition of recombinant mouse CLK1 extracted from bacteria using GRSRSRSRSRSR as substrate to IC50 for inhibition of human haspin kinase domain (470 to 798 residues) extracted from bacteria using histone H3 (1 to 21) peptide as substrate

Row | Structure (SMILES) | Ratio IC50 (Homo sapiens) | Ratio IC50 [1]
1 | c1cncc(-c2c[nH]c3cc4cnccc4cc23)c1 | 3.7 | –
2 | Cn1cc(-c2cccnc2)c2cc3ccncc3cc21 | – | 5.6
